The numbers were not newly measured in US8097625B2, “Combination of sedative and a neurotransmitter modulator, and methods for improving sleep quality and treating depression” (priority 2003, dated 2012), which cites them from elsewhere.

Amino acid sequences for entries named in this document (tags omitted).
UniProt P23975, whole entry: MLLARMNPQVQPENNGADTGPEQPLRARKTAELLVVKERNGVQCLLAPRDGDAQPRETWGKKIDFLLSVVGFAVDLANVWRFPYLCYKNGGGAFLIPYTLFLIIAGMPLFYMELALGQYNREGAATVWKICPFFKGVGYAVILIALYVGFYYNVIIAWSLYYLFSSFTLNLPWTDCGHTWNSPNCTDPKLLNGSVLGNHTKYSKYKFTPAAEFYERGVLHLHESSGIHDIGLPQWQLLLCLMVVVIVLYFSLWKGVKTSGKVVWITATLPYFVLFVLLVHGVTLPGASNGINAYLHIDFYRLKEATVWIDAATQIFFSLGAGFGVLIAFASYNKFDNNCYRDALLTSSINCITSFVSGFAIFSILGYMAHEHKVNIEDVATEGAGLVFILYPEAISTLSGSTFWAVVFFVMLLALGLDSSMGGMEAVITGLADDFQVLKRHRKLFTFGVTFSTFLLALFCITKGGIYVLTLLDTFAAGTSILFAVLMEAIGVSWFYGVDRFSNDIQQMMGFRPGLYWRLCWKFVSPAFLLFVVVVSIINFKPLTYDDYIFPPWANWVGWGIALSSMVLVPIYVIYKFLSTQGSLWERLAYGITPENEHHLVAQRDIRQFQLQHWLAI

The target of this data set is norepinephrine transporter (Homo sapiens, UniProt P23975). The note with it: read-out: Ki, norepinephrine transporter; cited from earlier work.

SMILES strings stand for the structures.

`CC(NC(C)(C)C)C(=O)c1cccc(Cl)c1` (stereo not shown) [Bupropion]: the Ki is 1400 nM.

The Ki is the dissociation constant of the complex between target and ligand, obtained from inhibition or displacement.
